Legend:
Acetylcholinesterase [1] = biological target: T1, Acetylcholinesterase (Homo sapiens, UniProt P22303); assay: Inhibition of human recombinant AChE using acetylthiocholine iodide as substrate assessed as dissociation constant for enzyme-substrate-inhibitor complex by Lineweaver-Burk plot analysis
Acetylcholinesterase [2] = biological target: T1, Acetylcholinesterase; assay: Inhibition of human recombinant AChE using acetylthiocholine iodide as substrate assessed as dissociation constant for enzyme-inhibitor complex by Lineweaver-Burk plot analysis

Chains of the proteins cited; added tags and fusions are not shown. Lines headed by an entry give the natural chain unless they say otherwise; changes in a name come on top.
UniProt P22303: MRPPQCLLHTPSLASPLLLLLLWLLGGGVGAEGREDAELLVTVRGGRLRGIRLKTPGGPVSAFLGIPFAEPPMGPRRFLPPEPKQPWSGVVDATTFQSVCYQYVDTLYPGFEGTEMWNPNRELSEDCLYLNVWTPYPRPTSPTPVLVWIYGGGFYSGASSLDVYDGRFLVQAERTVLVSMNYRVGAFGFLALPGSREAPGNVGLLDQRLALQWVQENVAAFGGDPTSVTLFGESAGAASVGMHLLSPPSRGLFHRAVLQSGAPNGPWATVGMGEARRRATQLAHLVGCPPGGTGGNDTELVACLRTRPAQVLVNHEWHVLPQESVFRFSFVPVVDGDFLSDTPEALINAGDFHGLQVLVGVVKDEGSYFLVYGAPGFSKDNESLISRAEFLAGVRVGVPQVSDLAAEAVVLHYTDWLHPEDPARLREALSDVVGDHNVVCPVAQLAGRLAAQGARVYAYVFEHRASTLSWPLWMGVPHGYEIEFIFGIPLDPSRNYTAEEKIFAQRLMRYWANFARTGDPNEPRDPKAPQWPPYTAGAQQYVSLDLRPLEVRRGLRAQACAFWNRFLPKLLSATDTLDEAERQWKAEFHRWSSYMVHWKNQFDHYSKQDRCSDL

CC1=C[C@@H]2Cc3nc4cc(Cl)ccc4c(NCCCCCCCCCNC(=O)c4cc(O)c5c(c4)C(=O)c4cccc(O)c4C5=O)c3[C@H](C1)C2 was tested, and the Ki (Acetylcholinesterase [1]) was 3.41 nM and the Ki (Acetylcholinesterase [2]) was 2.65 nM.
